# Screens from PubChem.
# The full list was thinned out, with hits kept by preference.
# HCMV UL50-53 inh – inhibitors of HCMV UL50-UL53 nuclear egress complex interaction | inhibition, % (test concentration not listed) | actives 0.15% (n = 190,000) | HTRF UL50-UL53 interaction, normalized percent inhibition; in the data active = inhibition above about 27%, passing the limit was not always enough
# GIV-Gai inh – inhibitors of GIV peptide binding to Galpha-i3, primary screen, biochemical, fluorescence polarization, FITC-GIV GBA peptide, rat Galphai3 | Guanine nucleotide-binding protein G(i) subunit alpha-3 (Rattus norvegicus), P08753 | 90 min; active compounds read low; scaled: aluminum fluoride 0%, vehicle 100% | 210,000 tested, 0.42% active | AID 1224905, 2016 | percent of control (FP), % (no concentration beside the values);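 active means replicate mean at 85% of control or lower, very high polarization wells dropped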;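 further: wells of about 15 µL received 100 nL stock; the first replicate is given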
# GIV Gai FP conf – confirmation of inhibitors of GIV binding to rat Galpha-i3; FITC-GIV peptide binding to Galphai3, fluorescence polarization; active compounds read low; fluorescence polarization, mP at 100 µM; actives 38% (n = 580); AID 1259350; shares compounds with GIV-Gai inh;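 active = inhibition score of 15 or more, meaning 100 minus mean polarization as percent of control over three replicates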;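 note: lower mP means peptide displaced from Galphai3 so more inhibition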
# GIV Gai AS conf – GIV-Galpha-i3 inhibition, AlphaScreen confirmation. shares compounds with GIV-Gai inh. AlphaScreen Galphai3-GIV binding, purified proteins, 90 min; active compounds read low. AlphaScreen counts at 100 µM. actives 39% (n = 580);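 active = inhibition score at or above a set limit, where the score is 100 minus the three-replicate mean percent of control signal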
# Active calls of the source: *; nt = no result.
1. CC(C)(C)C1CCc2c(sc3nc(-c4cc5ccccc5oc4=O)[nH]c(=O)c23)C1 (configuration not stated)
2. CCN(CC)c1ccc2cc(-c3nc4sc5c(c4c(=O)[nH]3)CCC(C(C)(C)C)C5)c(=O)oc2c1 (configuration not stated)
3. O=C1CN(Cc2cccc(Cl)c2)S(=O)(=O)c2ccccc2N1Cc1ccccc1
4. O=C(O)c1cccc(NC(=O)c2cccc(S(=O)(=O)Nc3cccc(C(=O)O)c3)c2)c1
5. O=C(Nc1cccc(C(=O)Nc2ccc(S(=O)(=O)O)c3cc(S(=O)(=O)O)cc(S(=O)(=O)O)c23)c1)Nc1cccc(C(=O)Nc2ccc(S(=O)(=O)O)c3cc(S(=O)(=O)O)cc(S(=O)(=O)O)c23)c1
6. O=C1CN(C(=O)c2cc([N+](=O)[O-])cc([N+](=O)[O-])c2Cl)c2ccccc2N1
7. CCCN(CCC)C(=O)c1cc(NC(C)=O)cnc1N1CCNCC1
8. COC(=O)c1sc2nc(C)cc(C(F)(F)F)c2c1N
9. CCc1nc2sc(C(=O)Nc3cccc(C(F)(F)F)c3)c(N)c2cc1C
10. COc1ccc(C(=O)c2sc3nc(C)cc(C(F)(F)F)c3c2N)cc1OC

Protein sequences, listed by entry. Tags and fused reporters are not part of them.
Guanine nucleotide-binding protein G(i) subunit alpha-3 (Rattus norvegicus), P08753, UniProt P08753, whole entry, looked up: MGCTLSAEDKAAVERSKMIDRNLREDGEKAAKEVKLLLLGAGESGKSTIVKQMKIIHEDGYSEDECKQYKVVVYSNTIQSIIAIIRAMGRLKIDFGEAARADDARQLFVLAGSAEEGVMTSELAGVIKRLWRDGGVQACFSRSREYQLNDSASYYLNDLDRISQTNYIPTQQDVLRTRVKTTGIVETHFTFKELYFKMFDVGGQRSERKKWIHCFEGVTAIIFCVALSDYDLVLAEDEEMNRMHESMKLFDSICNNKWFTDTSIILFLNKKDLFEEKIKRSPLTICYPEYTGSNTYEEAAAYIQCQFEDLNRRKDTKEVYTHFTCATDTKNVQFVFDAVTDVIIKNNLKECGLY

Compound | 1 | 2 | 3 | 4 | 5 | 6 | 7 | 8 | 9 | 10
HCMV UL50-53 inh | -8 | -5 | nt | nt | -42 | nt | nt | -13 | nt | nt
GIV-Gai inh | 108 | -66* | 104 | 95 | 0.1* | 96 | 98 | nt | 108 | 62*
GIV Gai FP conf | nt | nt | nt | nt | 33* | nt | nt | nt | nt | 69
GIV Gai AS conf | nt | nt | nt | nt | 3059* | nt | nt | nt | nt | 55081

11. Cc1cc(C(F)(F)F)c2c(N)c(C(=O)Nc3cccc(C(F)(F)F)c3)sc2n1
12. COc1ccc(S(=O)(=O)Nc2cccc(-c3nnc(-c4ccccc4)o3)c2)cc1OC
13. CC(C)CNC(=O)c1cc(-c2cccc(O)c2)on1
14. Cc1cc(=O)[nH]c(Nc2nc3ccccc3s2)n1
15. CCN1C(C(=O)c2ccccc2)=C(NC(=O)c2ccc(Cl)cc2)c2ccccc2S1(=O)=O
16. CN1C(C(=O)c2ccccc2)=C(NC(=O)c2ccccc2)c2ccccc2S1(=O)=O
17. O=C1CCCC(O)=C1C=Nc1ccc(N=CC2=C(O)CCCC2=O)cc1
18. O=C1CCCC(O)=C1C=NCCCn1ccnc1
19. CCOC(=O)c1ccc(NC(=O)c2c(NCc3ccc(C)o3)sc3c2CCCC3)cc1
20. Cc1cccc(NC(=O)CSC2=C(C#N)C(c3ccccc3C)C3=C(CCCC3=O)N2)c1 (configuration not stated)

Compound | 11 | 12 | 13 | 14 | 15 | 16 | 17 | 18 | 19 | 20
HCMV UL50-53 inh | nt | nt | -24 | -12 | -2 | -5 | -13 | -19 | nt | -8
GIV-Gai inh | 82* | 101 | 94 | 105 | 104 | 67* | 101 | 87 | 104 | nt
GIV Gai FP conf | 63 | nt | nt | nt | nt | 66 | nt | 66 | nt | nt
GIV Gai AS conf | 56533 | nt | nt | nt | nt | 42284 | nt | 3828* | nt | nt

21. S=C1NCc2ccsc2S1
22. Cc1cccc(NC2=NC(=S)N(c3ccccc3)C23CCCCC3)c1
23. COC(=O)CSc1ccc2c3c(cccc13)C(=O)c1ccccc1-2
24. COC(=O)CSc1ncnc2ccccc12
25. COc1ccccc1C(CCN)c1ccco1 (configuration not stated)
26. CCOC(=O)C1=C(C)N=c2s/c(=C\c3cc([N+](=O)[O-])ccc3N3CCOCC3)c(=O)n2C1c1ccc(OC)cc1 (configuration not stated)
27. CCOC(=O)C1=C(C)N=c2s/c(=C\c3cc([N+](=O)[O-])ccc3N3CCOCC3)c(=O)n2C1c1ccc(F)cc1 (configuration not stated)
28. O=C1c2ccccc2C(=O)C1C(c1ccccc1)C1C(=O)c2ccccc2C1=O
29. O=C(c1ccccc1)C1C(=O)c2ccccc2C1=O
30. N#Cc1ccsc1/N=C/c1ccccc1

Compound | 21 | 22 | 23 | 24 | 25 | 26 | 27 | 28 | 29 | 30
HCMV UL50-53 inh | -242 | nt | nt | 5 | 1 | -3 | -18 | nt | -38 | -24
GIV-Gai inh | 49* | 110 | 68* | nt | 101 | 104 | 74* | 76* | 97 | 106
GIV Gai FP conf | 51* | nt | 22* | nt | nt | nt | 64 | 54 | nt | nt
GIV Gai AS conf | 31760* | nt | 45087 | nt | nt | nt | 55281 | 5972* | nt | nt

31. Cc1ccc(/C=N/c2sccc2C#N)cc1
32. COc1cc(/C=C2\C(=O)N(c3ccc(Cl)c(C(=O)O)c3)N=C2C)ccc1OCc1ccccc1
33. COc1cc(/C=C2\C(=O)N(c3ccc(S(N)(=O)=O)cc3)N=C2C)cc(Br)c1OCc1ccccc1
34. COc1cc(-c2nc3ccccn3c2N)ccc1O
35. COc1cc(/C=N/c2c(-c3ccc(O)c(OC)c3)nc3ccccn23)ccc1O
36. COc1ccc(C(=O)N(Cc2ccc3c(c2)OCO3)C2CCCC2)c(OC)c1
37. O=S(=O)(c1ccc(Nc2ccc(F)cc2)nc1)N1CCCC1
38. Nc1ccccc1C1C(=O)CSC1=O (configuration not stated)
39. O=c1[nH]c(NCCO)c(I)c(=O)[nH]1
40. Cc1[nH]c(=O)[nH]c(=O)c1S(=O)(=O)NCCO

Compound | 31 | 32 | 33 | 34 | 35 | 36 | 37 | 38 | 39 | 40
HCMV UL50-53 inh | -10 | 26 | 46* | 94* | -51 | -14 | -6 | -10 | 67* | -10
GIV-Gai inh | 48* | 109 | 66* | 24* | nt | nt | nt | nt | 57* | 103
GIV Gai FP conf | 40* | nt | 59 | 51 | nt | nt | nt | nt | 43* | nt
GIV Gai AS conf | 10146* | nt | 27596* | 18629* | nt | nt | nt | nt | 2885* | nt

# Quoted from the listing.
# Under GIV-Gai inh, cpd 34 has 24*
# Under HCMV UL50-53 inh, cpd 35 has -51

# Ordered by count of non-hydrogen atoms (falling): some entries from above
1. CC(C)(C)C1CCc2c(sc3nc(-c4cc5ccccc5oc4=O)[nH]c(=O)c23)C1 (configuration not stated)
6. O=C1CN(C(=O)c2cc([N+](=O)[O-])cc([N+](=O)[O-])c2Cl)c2ccccc2N1
29. O=C(c1ccccc1)C1C(=O)c2ccccc2C1=O

Compound | 1 | 6 | 29
HCMV UL50-53 inh | -8 | nt | -38
GIV-Gai inh | 108 | 96 | 97
GIV Gai FP conf | nt | nt | nt
GIV Gai AS conf | nt | nt | nt

# Further structures.
41. Cc1nc(CCNC(=O)[C@H]2CSCN2S(=O)(=O)c2ccc(Cl)cc2)cs1
42. CCc1c(C)sc2c1CCN(CC(=O)Nc1sc(C)cc1C(=O)OC)C2c1ccccc1 (configuration not stated)
43. Cc1ccc(NC(=O)c2ccc3[nH]c(C)cc(=O)c3c2)cc1
44. CCOc1ccc(NC(=O)c2ccc3[nH]c(C)cc(=O)c3c2)cc1
45. CC(CC(=O)O)CC(=O)Nc1cccc(C(=O)O)c1 (configuration not stated)
46. C/C(=N\NC(=O)C(F)(F)F)c1ccccc1O
47. C/C(=N/NC(=O)C(F)(F)F)c1cccs1
48. O=c1[nH]c2ccccc2nc1NCc1ccccc1
49. Nc1nc(NCc2ccccc2)c(I)c(=O)[nH]1
50. Cc1ccc(-c2noc(-c3cn(C)c4cc(N5CCCCC5)c(F)cc4c3=O)n2)cc1

Compound | 41 | 42 | 43 | 44 | 45 | 46 | 47 | 48 | 49 | 50
HCMV UL50-53 inh | nt | -1 | -1 | -7 | nt | 3 | -7 | -29 | 66* | -6
GIV-Gai inh | 103 | 98 | 86 | 98 | 102 | 94 | 104 | 100 | 50* | 105
GIV Gai FP conf | nt | nt | 80 | nt | nt | 72 | nt | nt | 46* | nt
GIV Gai AS conf | nt | nt | 29554 | nt | nt | 56622 | nt | nt | 2457* | nt

51. CCC(=O)Nc1cc2nc3[nH]c(=O)n(C)c(=O)c3nc2cc1C
52. CCCCCCC(=O)Nc1cc2nc3[nH]c(=O)n(C)c(=O)c3nc2cc1C
53. S=c1[nH]nc(-c2cc(-c3ccccc3)n[nH]2)n1C1CC2C=CC1C2 (configuration not stated)
54. O=C1/C(=C/c2cccnc2)CCC/C1=C\c1cccnc1
55. O=C1/C(=C/c2cccnc2)CC/C1=C\c1cccnc1
56. CC1=CC(=C(C#N)C#N)C=C(C)N1CCc1ccccc1
57. COc1nonc1NC(C)=O
58. CC(=O)NC1=CC(=O)c2nonc2C1=O
59. O=C(CSc1nnc2c(n1)CCCC2)c1ccc(N2CCCC2=O)cc1
60. O=C(CSc1nnc(-c2ccccn2)c(-c2ccccn2)n1)c1ccc(N2CCCC2=O)cc1
61. Cc1ccccc1NC(=O)c1sc2nc(-c3cc4ccccc4oc3=O)[nH]c(=O)c2c1C
62. Cc1ccccc1NC(=O)c1cc2ccccc2o1

Compound | 51 | 52 | 53 | 54 | 55 | 56 | 57 | 58 | 59 | 60 | 61 | 62
HCMV UL50-53 inh | -162 | -64 | -19 | 19 | nt | -24 | 3 | 86* | 26 | -44 | 6 | nt
GIV-Gai inh | 21* | 100 | 99 | 49* | 90 | 107 | nt | 4.4* | 66* | 107 | 71* | 100
GIV Gai FP conf | 46* | nt | nt | 53* | nt | nt | nt | 26* | 53* | nt | 38* | nt
GIV Gai AS conf | 34033 | nt | nt | 32981 | nt | nt | nt | 7791* | 2430* | nt | 23058 | nt

# 3 compounds already listed, sorted by their value in GIV Gai AS conf, lowest first.
no.	molecule	GIV-Gai inh	GIV Gai FP conf	GIV Gai AS conf
59	O=C(CSc1nnc2c(n1)CCCC2)c1ccc(N2CCCC2=O)cc1	66*	53*	2430*
58	CC(=O)NC1=CC(=O)c2nonc2C1=O	4.4*	26*	7791*
54	O=C1/C(=C/c2cccnc2)CCC/C1=C\c1cccnc1	49*	53*	32981
